Antibody variant affinities, Ab-91 heavy chain, assay 2

Target: peptide PDVDLGDISGINAS, taken from heptad repeat 2 (HR2) of SARS-CoV-2 spike.

Parent scFv Ab-91: VL joined to VH by the linker GGGGSGGGGSGGGGS. Changes lie in the heavy chain CDRs alone.
VL: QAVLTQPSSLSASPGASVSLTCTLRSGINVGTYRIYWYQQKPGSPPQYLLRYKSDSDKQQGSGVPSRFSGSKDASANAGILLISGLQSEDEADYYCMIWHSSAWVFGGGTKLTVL
VH: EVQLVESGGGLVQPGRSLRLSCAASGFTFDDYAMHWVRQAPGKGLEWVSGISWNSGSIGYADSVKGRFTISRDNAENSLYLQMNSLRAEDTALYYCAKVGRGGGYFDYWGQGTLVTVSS

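AAYL51 was designed without a model: most single CDR substitutions and a random sample of double and triple ones. The assay is AlphaSeq: two haploid yeast populations carry antibody and antigen on their surface. After mating in shaken culture at 30 °C for 16 h, diploids were selected and their barcode pairs sequenced. Scores were corrected for input abundance and mapped to Kd with protein pairs of known affinity run in the same pool. Mating was done three times.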

Substitutions are numbered in sequence along the VH above, starting at 1 (not Kabat). Affinities are written as log10 Kd with Kd in nM; a lower number is a better binder. Replicates are averaged; those with no signal do not enter the mean. "n.d." marks a missing value. The strain was present, yet no cells mated with the target were sequenced in that replicate, which points to weak or no binding.

changes	log10 Kd, replicates	log10 Kd (nM), mean	signal with controls
V64H	4.43 / 4.02 / 5.19	4.54	8 of 9 (4.75)
F27A+G102L+D107N	4.44 / n.d. / n.d.	4.44	0 of 9
S57V+V64M+G102H	n.d. / n.d. / n.d.	n.d.	0 of 9
D30Q+D62S+G103Q	4.17 / n.d. / n.d.	4.17	3 of 9 (4.19)
T28H+H35Q+G104R	n.d. / 3.65 / n.d.	3.65	0 of 9
I58F+D62G+Y105V	n.d. / n.d. / n.d.	n.d.	2 of 9 (3.98)
G50H+N54W	n.d. / n.d. / n.d.	n.d.	3 of 9 (5.02)
A33Y+S57C	3.48 / 6.21 / 5.04	4.91	4 of 9 (4.11)
N54G+K65W	3.22 / n.d. / n.d.	3.22	0 of 9
M34G+S55W+V64Q	n.d. / n.d. / n.d.	n.d.	3 of 9 (3.23)
D31Y+G59T	n.d. / n.d. / n.d.	n.d.	0 of 9
Y32P+G56L+G59C	n.d. / n.d. / n.d.	n.d.	0 of 9
D30T+Y32E+K65V	n.d. / n.d. / n.d.	n.d.	1 of 9 (3.05)
Y32T+G56K+F106G	n.d. / n.d. / n.d.	n.d.	0 of 9
H35A+Y108G	3.50 / 4.70 / n.d.	4.10	1 of 9 (4.13)
I51R+S63C+K65L	n.d. / n.d. / n.d.	n.d.	0 of 9
G100S+D107H	n.d. / 5.16 / 5.10	5.13	4 of 9 (4.12)
S52K+S57K+G102Y	n.d. / 4.61 / n.d.	4.61	3 of 9 (4.66)
T28H+D30Y+Y108D	2.00 / 2.07 / 1.70	1.92	0 of 9
T28K+S52R+G104D	3.61 / n.d. / n.d.	3.61	3 of 9 (3.85)
S52W+G103L+Y108F	4.64 / n.d. / n.d.	4.64	2 of 9 (4.87)
D30Q+S52F+G56W	n.d. / 4.94 / n.d.	4.94	3 of 9 (3.91)
F29D+Y32P+S55Q	n.d. / n.d. / n.d.	n.d.	1 of 9 (4.93)
T28I+D62Q+D107E	5.66 / 6.45 / 3.66	5.26	7 of 9 (4.76)
A33P+V99D	4.07 / 4.70 / 5.66	4.81	6 of 9 (4.71)
T28R+G59S+R101F	3.93 / 6.18 / 5.42	5.18	4 of 9 (4.24)
I51R+V64A+Y108K	n.d. / n.d. / n.d.	n.d.	3 of 9 (4.07)
D31L+H35F+R101E	n.d. / n.d. / n.d.	n.d.	1 of 9 (2.75)
S52A+S57D+F106L	3.64 / 3.85 / 4.04	3.84	8 of 9 (5.18)
T28D+D31Q+A33D	3.54 / n.d. / n.d.	3.54	1 of 9 (4.05)
S57V+S63L+Y105W	n.d. / 2.23 / n.d.	2.23	1 of 9 (1.29)
Y32N+H35T+S55E	n.d. / n.d. / n.d.	n.d.	0 of 9
G26Q+S55V+K65A	5.00 / n.d. / n.d.	5.00	1 of 9 (3.91)
S52Y+Y60Q+R101S	n.d. / n.d. / n.d.	n.d.	4 of 9 (5.04)
D31N+H35N+G102F	n.d. / n.d. / n.d.	n.d.	0 of 9
A61I+V99I+Y105V	1.59 / 1.75 / 1.33	1.56	0 of 9
S55G+R101E	n.d. / n.d. / 4.10	4.10	1 of 9 (4.76)
G50A+S63T+Y105R	n.d. / n.d. / n.d.	n.d.	1 of 9 (3.51)
G26T+V64Y+Y105E	n.d. / n.d. / n.d.	n.d.	1 of 9 (3.60)
G26A+T28V+Y60F	3.29 / 3.28 / 3.06	3.21	7 of 9 (4.66)
A61I+G102H+D107A	n.d. / n.d. / 3.81	3.81	0 of 9
Y32G+V99L+G102R	n.d. / n.d. / n.d.	n.d.	2 of 9 (3.64)
N54P+S63Q+V64Q	3.84 / n.d. / 3.15	3.49	1 of 9 (4.82)
I58G+V64P+K65T	4.04 / n.d. / n.d.	4.04	3 of 9 (4.34)
D31Y+I58M+K65E	n.d. / n.d. / n.d.	n.d.	1 of 9 (3.90)
F27T+G100A+D107Y	n.d. / n.d. / n.d.	n.d.	1 of 9 (4.42)
F27I+H35I+S52E	n.d. / n.d. / n.d.	n.d.	3 of 9 (4.77)

The 3 strongest on average among those seen in every replicate, once more:

| changes | log10 Kd, replicates | log10 Kd (nM), mean | signal with controls |
|---|---|---|---|
| A61I+V99I+Y105V | 1.59 / 1.75 / 1.33 | 1.56 | 0 of 9 |
| T28H+D30Y+Y108D | 2.00 / 2.07 / 1.70 | 1.92 | 0 of 9 |
| G26A+T28V+Y60F | 3.29 / 3.28 / 3.06 | 3.21 | 7 of 9 (4.66) |

As a blank, each scFv also met three strains without target: over library AAYL51, 21% of these pairings were detected, typically at 4.54 and seldom below 3.26. Also given: how often the same scFv was detected with the empty control strains, with their mean in brackets. For reference, the parent read 1.86 as the reference entry and 0.88 as a member of this library.

Data: MIT Lincoln Laboratory AlphaSeq set, Engelhart et al. 2022, doi:10.1038/s41597-022-01779-4, as distributed in FLAb.